Source: patent US20250019381A1, “PROCESS FOR THE […] OF 6-((3S,4S)-4-METHYL-1-(PYRIMIDIN-2-[…])PYRROLIDIN-3-YL)-3-(TETRAHYDROPYRAN-4-YL-7H-IMIDAZO[1,5-a]PYRAZIN-8-ONE” (Cardurion Pharmaceuticals, Inc., priority 2017, published 2025)

Test: Blood Brain Barrier penetration: plasma and brain concentration
Assay type: in vivo

- Brain concentration after 30 minutes (30 min): 500 ng/mL
- Brain concentration after 120 minutes (120 min): 215 ng/mL
SMILES: C[C@@H]1CN(Cc2ncccn2)C[C@H]1c1nc2c(cnn2C2CCOCC2)c(=O)[nH]1 (relative stereo)
